Earlier results on two compounds are cited in patent US10927398B2, “Compositions for CYP450 phenotyping using saliva samples” (Concordia University, Inc., priority 2015, dated 2021).

The conditions of data set [1]: Table of Exemplary Drugs, CYP3A4; cited from earlier work.
The subject of a further data set is plasma protein. As to conditions: Table of Exemplary Drugs, CYP3A4; cited from earlier work.

This is a selection: effects in other tests are not listed, and their absence says nothing.

With `CCC(=O)N(c1ccccc1)C1(COC)CCN(CCc2cccs2)CC1`, the “HALF-LIFE” value in data set [1] was 2.5 h. Moreover, the “PLASMA PROTEIN BINDING” value with plasma protein was 93%.

As for `CCC(=O)N(c1ccccc1)C1(COC)CCN(CCn2nnn(CC)c2=O)CC1`, the “HALF-LIFE” value in data set [1] was 1.5 h. Also, in the data set on plasma protein, the “PLASMA PROTEIN BINDING” value is 92%.
